# Measurements: patent US11767353B2, “Trail compositions with reduced immunogenicity” (Theraly Fibrosis, Inc., priority 2020, dated 2023)
# B1: miLZ-TRAIL: recombinant human TRAIL (amino acids 114-281) preceded by deimmunized isoleucine zipper (SEQ ID NO:4), without His tag (protein)
# chain: GRMKQIEDKIEEILSKIYHVENEIARIKELIGEDGVRERGPQRVAAHITGTRGRSNTLSSPNSKNEKALGRKINSWESSRSGHSFLSNLHLRNGELVIHEKGFYYIYSQTYFRFQEEIKENTKNDKQMVQYIYKYTSYPDPILLMKSARNSCWSKDAEYGLYSIYQGGIFELKENDRIFVSVTNEHLIDMDHEASFFGAFLVG
# B2: TLY012: PEGylated (5 kDa PEG-aldehyde) recombinant human TRAIL (114-281) fused to modified isoleucine zipper (miLZ) at N-terminus; SEQ ID NO:30 trimer (conjugate)
# chain: GRMKQIEDKIEEILSKIYHVENEIARIKELIGEDGVRERGPQRVAAHITGTRGRSNTLSSPNSKNEKALGRKINSWESSRSGHSFLSNLHLRNGELVIHEKGFYYIYSQTYFRFQEEIKENTKNDKQMVQYIYKYTSYPDPILLMKSARNSCWSKDAEYGLYSIYQGGIFELKENDRIFVSVTNEHLIDMDHEASFFGAFLVG
# modifications: 5 kDa PEG; trimer
# Key:
# [1] = Solubility at PEGylation in solution, pH 5.0; format: physicochemical
# Excerpt: The fusion polypeptides used in this study were the same as those in Example 3.
# [2] = tested on: COLO 205 cells; assay: Cell viability bioassay (CELL TITER-GLO) on COLO 205 cells; format: cell-based, Human
# Excerpt: TLY012 is a PEGylated form of rhTRAIL, genetically fused to a humanized coiled-coil isoleucine “zipper” (miLZ) at the N-terminus. It is a DR4/DR5 receptor agonist and as such is known to induce apoptosis in Human colon adenocarcinoma cells COLO 205 resulting in inhibition of cell proliferation. CELL TITER-GLO™ (Promega, WI) was used to measure luminescence in conventional luciferase assay system. This assay is a homogeneous method to determine the number of metabolically active cells based on quantitation of the ATP present. […]
# Assay Procedure. […] The 96-well plates were placed into a 37±1.0° C.; 5±0.5% CO2; ≥85% relative humidity cell culture incubator in a single layer and incubated for 1±0.5 hours until cells are ready. […] As a result, inhibition of cell proliferation is measured by adding the CELL TITER-GLO™ solution to the cells, the lysed cells release ATP. […]
# The growth medium was RPMI1640 with 10% FBS, glutamine, penicillin/streptomycin solution. […] Cell suspension was transferred to the white 96-well plates and luminescence was measured by BIOTEK plate reader.
# Data were analyzed using BioTek Gen5secure software. The dose response curves were generated using the four-parameter fit logistic model and the IC50 values for reference standard and test samples were calculated. Potency of the test sample is expressed as the ratio of the IC50 values of the test and reference standard samples. […]
# [3] = Thermal Shift assay (thermodynamic stability); format: physicochemical; conditions: FIG. 2A
# Method: Proteins were purified using NTA agarose and tested for purity, thermodynamic stability and biological activity. iLZ-TRAIL-containing cells were lysed and supernatant containing high salt (1M NaCl) was prepared by centrifugation. Nucleic acids were digested using benzonase and the resultant cell lysate was incubated with Zn-NTA resin (batch or column) in the presence of low imidazole (typically 10 mM) until the binding capacity of the resin was saturated with respect to iLZ-TRAIL binding. The resin was washed with high-salt buffer in the presence of low imidazole as a batch or as a column content and iLZ-TRAIL was eluted with 125-250 mM imidazole. Eluted proteins were dialyzed against the buffers required for specific assays.
# [4] = tested on: Human Colon Carcinoma Fibroblasts HC-6231; assay: Caspase 3/7 activity in colon cancer associated fibroblasts; format: cell-based; conditions: TLY012 30 ng/ml 3h vs Gemcitabine, Doxorubicin, Cisplatin, 5-FU, Irinotecan 24 hours, FIG. 12B
# Excerpt: Human Colon Carcinoma Fibroblasts HC-6231 were obtained from Cell Biologics (Catalog Number HC-6231) and maintained in fibroblast media (Cell Biologics, Catalog Number M2267).
Molecule,"starting concentration in PEGylation experiments, no solubility issues observed [1]",fold higher biological activity in cell viability bioassay vs His-tag iLZ-TRAIL ([2]; FIG. 2B),thermodynamic stability in Thermal Shift assay compared to HisTag-iLZ-TRAIL [3],thermodynamic stability in Thermal Shift assay compared to HisTag-iLZ-TRAIL ([3]; listed as fusion polypeptide containing SEQ ID NO: 4 as the first sequence and SEQ ID NO:1),apoptosis (fold increase in caspase 3/7 activation) among tested cytotoxic agents [4],"fold higher biological activity (cytotoxicity) vs the prototype (PEGylated TRAIL with HIS-tag) ([2]; COLO 205 cells, Table 2)"
B1,15 mg/mL,about 5 fold,just a small shoulder instead of the first peak,statistically higher thermodynamic stability,–,–
B2,–,–,–,–,significantly greater apoptosis,9 fold
